Columns and labels:
Quadruplex DNA [1] = system: Quadruplex DNA
Quadruplex DNA [2] = system: Quadruplex DNA; remark: listed apart in the source

Ka (dsDNA): 0.12 10^6/M | Ka (Quadruplex DNA [1]): 0.24 10^6/M | Ka (Quadruplex DNA [2]): 0.36 10^6/M
SMILES: CN(C)CCOc1ccc2c(ccn2-c2ccc3ccc(-n4ccc5cc(OCCN(C)C)ccc54)nc3n2)c1
